Target: STAT6 (Homo sapiens (Human), UniProt P42226)
Experiment: STAT6 degrader assay (HiBiT, HeLa LgBiT clone 4.14)
Format: cell-based
Conditions: read-out: STAT6 degradation DC50; HeLa LgBiT clone 4.14, 4-24 h; geometric mean; given for compounds with >80% Emax
Description: This was a HiBit based assay. A HeLa cell line stably transfected with a small protein, LgBit (Large Bit) was obtained from Promega. These cells express endogenous STAT6. A small 11 amino acid gene sequence (HiBiT) was inserted in the STAT6 gene using CRISPR technology. Once STAT6 protein is expressed in the cells, the HiBiT sequence will bind the LgBit in the cells resulting in a functional NanoBiT protein, giving a luminescent tag to STAT6, see FIG. 2.
Single cell clones were prepared and the clone 4.14 was selected for the assay based on that clone showing high luminescence, high STAT6 phosphorylation upon stimulation with IL-4, and inhibition of luminescence when cells were treated with STAT6 siRNA.
HeLa LgBiT clone 4.14 cells were suspended in DMEM with 10% FCS, 1% Pen/Strep, Na-pyrovate and Hygromycin B, at a concentration of 1.25*105 cells pr mL. 5000 cells were added pr well of a 384 well plate and 20 nL of compound was added by Echo® liquid handler. NN6394A (terfenadine, a toxic compound) was added to control wells at 50 μM concentration to establish the assay window. In these wells the cells are dead which equals 100% degradation of STAT6. […]
The luminescence in the wells as a measure of non-degraded STAT6 was measured in a plate reader (BMG Pherastar FSX). The measured DC50 (in nM) was determined. […]

Sequences of proteins named here, by UniProt entry; tags and fusion partners are left off.
UniProt P42226, whole entry: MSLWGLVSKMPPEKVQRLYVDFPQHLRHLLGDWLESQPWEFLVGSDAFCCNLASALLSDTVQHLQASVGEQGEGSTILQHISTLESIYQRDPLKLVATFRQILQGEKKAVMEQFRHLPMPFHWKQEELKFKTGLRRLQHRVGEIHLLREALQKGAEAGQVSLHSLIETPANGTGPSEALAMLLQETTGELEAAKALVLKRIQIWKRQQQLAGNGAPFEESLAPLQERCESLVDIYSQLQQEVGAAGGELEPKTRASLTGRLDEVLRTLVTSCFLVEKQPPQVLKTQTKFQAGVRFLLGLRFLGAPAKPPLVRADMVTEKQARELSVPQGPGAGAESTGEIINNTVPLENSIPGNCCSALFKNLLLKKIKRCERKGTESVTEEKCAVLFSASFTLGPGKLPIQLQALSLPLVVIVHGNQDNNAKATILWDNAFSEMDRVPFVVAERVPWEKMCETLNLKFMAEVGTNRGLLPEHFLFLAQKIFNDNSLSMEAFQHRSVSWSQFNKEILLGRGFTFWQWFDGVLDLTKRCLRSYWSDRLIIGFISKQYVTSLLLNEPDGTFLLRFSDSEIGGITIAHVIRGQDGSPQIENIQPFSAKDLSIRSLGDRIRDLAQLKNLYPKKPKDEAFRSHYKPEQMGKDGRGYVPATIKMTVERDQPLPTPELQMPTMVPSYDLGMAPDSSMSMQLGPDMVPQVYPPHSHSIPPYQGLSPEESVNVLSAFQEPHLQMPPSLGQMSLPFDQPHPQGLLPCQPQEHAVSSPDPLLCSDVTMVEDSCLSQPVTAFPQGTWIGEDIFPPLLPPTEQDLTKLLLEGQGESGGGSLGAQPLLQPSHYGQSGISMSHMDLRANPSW

COCCn1c(=O)n(C2CCC(=O)NC2=O)c2ccc(CN3CCN(CC4CCN(C(=O)c5ccc(C6CCN(Cc7cc8c(-c9ccc%10[nH]ncc%10c9)ccnc8n7C)CC6)cc5)CC4)CC3)cc21 (stereo not shown)
DC50: 1.5 nM
